# Assays:
# Sequences of proteins named here, by UniProt entry; tags and fusion partners are left off. A line that says so, or that is headed by a name, gives the form on record, which may keep a tag or linker. Residues count along the entry.
# UniProt P00533, 25-1210 T790M/L858R: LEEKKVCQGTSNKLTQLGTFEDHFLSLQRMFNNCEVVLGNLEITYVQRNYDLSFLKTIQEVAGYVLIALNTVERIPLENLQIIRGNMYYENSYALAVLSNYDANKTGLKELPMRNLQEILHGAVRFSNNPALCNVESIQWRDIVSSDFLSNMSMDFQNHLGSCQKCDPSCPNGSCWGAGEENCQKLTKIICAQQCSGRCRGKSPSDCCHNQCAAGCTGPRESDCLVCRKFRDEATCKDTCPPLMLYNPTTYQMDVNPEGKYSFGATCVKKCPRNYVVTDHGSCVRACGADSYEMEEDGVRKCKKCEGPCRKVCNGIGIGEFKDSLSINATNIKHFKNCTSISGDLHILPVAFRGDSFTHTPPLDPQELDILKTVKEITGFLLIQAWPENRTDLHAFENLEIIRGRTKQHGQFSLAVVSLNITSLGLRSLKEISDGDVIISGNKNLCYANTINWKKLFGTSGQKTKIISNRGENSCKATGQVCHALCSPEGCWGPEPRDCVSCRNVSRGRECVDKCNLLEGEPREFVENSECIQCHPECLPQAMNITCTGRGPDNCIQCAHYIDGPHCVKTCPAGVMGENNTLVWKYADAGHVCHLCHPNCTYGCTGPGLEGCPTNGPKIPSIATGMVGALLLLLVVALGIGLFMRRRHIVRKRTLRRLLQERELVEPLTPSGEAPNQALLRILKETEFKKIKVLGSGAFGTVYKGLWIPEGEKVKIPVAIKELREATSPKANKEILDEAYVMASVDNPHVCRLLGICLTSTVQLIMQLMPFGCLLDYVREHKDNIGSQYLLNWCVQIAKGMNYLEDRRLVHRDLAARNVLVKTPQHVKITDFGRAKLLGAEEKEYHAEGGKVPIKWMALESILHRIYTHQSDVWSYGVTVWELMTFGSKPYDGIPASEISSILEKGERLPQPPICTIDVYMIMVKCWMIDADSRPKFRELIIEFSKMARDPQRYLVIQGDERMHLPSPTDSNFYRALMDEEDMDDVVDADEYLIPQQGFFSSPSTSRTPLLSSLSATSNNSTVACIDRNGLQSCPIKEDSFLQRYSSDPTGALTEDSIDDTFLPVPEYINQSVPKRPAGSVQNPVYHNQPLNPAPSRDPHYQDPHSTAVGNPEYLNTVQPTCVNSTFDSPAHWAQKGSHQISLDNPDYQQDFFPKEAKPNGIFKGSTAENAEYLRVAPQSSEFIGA
# UniProt P00533, with tags, fused parts or gaps INS770NPG: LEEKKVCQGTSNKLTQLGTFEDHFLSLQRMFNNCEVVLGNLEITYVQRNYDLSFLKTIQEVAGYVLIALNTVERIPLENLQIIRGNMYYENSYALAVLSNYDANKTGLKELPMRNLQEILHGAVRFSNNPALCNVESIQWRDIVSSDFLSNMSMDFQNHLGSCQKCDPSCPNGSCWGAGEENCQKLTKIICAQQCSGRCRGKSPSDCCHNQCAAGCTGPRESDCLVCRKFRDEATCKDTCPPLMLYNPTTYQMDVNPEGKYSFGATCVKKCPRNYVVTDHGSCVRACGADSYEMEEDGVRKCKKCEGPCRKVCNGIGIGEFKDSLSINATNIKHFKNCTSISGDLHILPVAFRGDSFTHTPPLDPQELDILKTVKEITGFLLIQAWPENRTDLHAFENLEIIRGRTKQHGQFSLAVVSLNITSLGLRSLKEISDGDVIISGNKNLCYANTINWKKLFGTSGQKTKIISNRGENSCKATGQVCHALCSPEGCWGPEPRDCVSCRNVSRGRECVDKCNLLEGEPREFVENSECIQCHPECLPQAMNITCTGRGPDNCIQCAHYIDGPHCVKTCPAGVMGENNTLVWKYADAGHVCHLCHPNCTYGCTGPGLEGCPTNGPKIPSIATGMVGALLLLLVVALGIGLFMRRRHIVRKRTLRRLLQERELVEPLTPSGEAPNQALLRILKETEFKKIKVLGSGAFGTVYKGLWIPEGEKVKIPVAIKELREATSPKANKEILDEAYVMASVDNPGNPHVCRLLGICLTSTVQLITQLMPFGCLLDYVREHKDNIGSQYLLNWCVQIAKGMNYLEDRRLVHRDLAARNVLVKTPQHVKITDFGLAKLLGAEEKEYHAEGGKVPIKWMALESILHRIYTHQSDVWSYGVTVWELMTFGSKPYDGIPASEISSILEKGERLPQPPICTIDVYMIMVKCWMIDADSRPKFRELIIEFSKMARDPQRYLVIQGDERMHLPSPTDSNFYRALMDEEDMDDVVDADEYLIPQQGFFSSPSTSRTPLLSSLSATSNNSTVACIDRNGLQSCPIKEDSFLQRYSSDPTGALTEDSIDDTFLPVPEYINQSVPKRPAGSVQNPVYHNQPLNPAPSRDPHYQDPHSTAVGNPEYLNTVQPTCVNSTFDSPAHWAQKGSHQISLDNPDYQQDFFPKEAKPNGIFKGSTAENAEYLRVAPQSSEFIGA
# [1] = target: EGFR (L858R/T790M) (Homo sapiens, UniProt P00533, L858R/T790M); test: EGFR biochemical assay; details: with 90-minute pre-incubation
# [2] = target: T1, EGFR Ex20_D770_N771insNPG (Homo sapiens, UniProt P00533, INS770NPG); test: EGFR target modulation assay (phospho-EGFR) in NIH-3T3 Ex20_D770_N771insNPG cells; format: cell-based; details: NIH-3T3 target modulation, 3 hours
# T1 construct: host or cells: NIH-3T3
# Protocol: NIH-3T3 Ex20_D770_N771insNPG cells (obtained from DFCI) were maintained in 10% FBS/DMEM P/S media supplemented with 2 μg/mL puromycin. Engineered BaF3 cells were maintained in 10% FBS/RMPI P/S media supplemented with 2 μg/mL puromycin. All cells were maintained in a humidified incubator at 37° C. with 5% CO2.
# To assess compound efficacy on EGFR target modulation, phospho-EGFR was measured in NIH-3T3 Ex20_D770_N771insNPG cells treated with compound. These cells were plated overnight in 5% FBS/DMEM at 1000 cells/well (25 μL per well) in a 384-well tissue culture plate. Compounds from a 12-point dilution curve (20 μM highest final concentration, serial diluted by 3-fold in DMSO) were transferred to the cells using a 50 nL Pin Tool device and incubated in a humidified incubator at 37° C. with 5% CO2 for 3 hours. Media was drained to 20 μL followed by the addition of 20 μL of 2×Lysis buffer with phosphatase and protease inhibitors. […] Active EGFR was detected with rabbit anti-phospho-EGFR (Y1173) followed by goat anti-rabbit IgG conjugated to HRP. Plates were developed with SuperSignal ELISA Pico chemiluminescent detection reagent and luminescence read on EnVision plate reader.
# Raw data were uploaded to the LDDB server, and the IC50 values for the compound in each cell line were calculated using non-linear curve fitting analysis.
smiles,measurement,setting,value
"Cc1cc(C(=O)Nc2nc3cccc(Cl)c3n2[C@@H]2CCCCN(C(=O)/C=C/CN(C)C)C2)ccn1 [Compound A, (R,E)-N-(7-chloro-1-(1-(4-(dimethylamino)but-2-enoyl)azepan-3-yl)-1Hbenzo[d]imidazol-2-yl)-2-methylisonicotinamide]",IC50,[1],< 1 nM
same,IC50,[2],14 nM
